Data: paper PMC10771525 (Communications Biology, 2024)

Key:
Format in all cases: cell-based, human
Settings in all cases: reference agonist
FSHR = assay: GPCR panel (control), Arrestin, CHO-K1
LHCGR = assay: GPCR panel (control), Arrestin, CHO-K1
TSHR = assay: GPCR panel (control), Arrestin, U2OS

Substance: FSH
- EC50 (FSHR): 3.9 nM
- EC80 (FSHR): 210 nM

Substance: Chorionic Gonadotropin (hCG)
- EC50 (LHCGR): 6.8 nM
- EC80 (LHCGR): 45 nM

Substance: Human TSH
- EC50 (TSHR): 88 nM
- EC80 (TSHR): 3500 nM
